Values of other authors in patent EP0657176B1, “Composition containing a water-insoluble or slightly water-soluble compound with enhanced water-solubility” (priority 1993, dated 1995).

Settings: cited from earlier work

Substance: γ-cyclodextrin
- water-solubilities: about 23%
